From patent US20110105389A1 (priority 2009, published 2011)
pIC50, pKi: −log10 of the molar value.

Amino acid sequences for entries named in this document (tags omitted).
UniProt Q92847, whole entry: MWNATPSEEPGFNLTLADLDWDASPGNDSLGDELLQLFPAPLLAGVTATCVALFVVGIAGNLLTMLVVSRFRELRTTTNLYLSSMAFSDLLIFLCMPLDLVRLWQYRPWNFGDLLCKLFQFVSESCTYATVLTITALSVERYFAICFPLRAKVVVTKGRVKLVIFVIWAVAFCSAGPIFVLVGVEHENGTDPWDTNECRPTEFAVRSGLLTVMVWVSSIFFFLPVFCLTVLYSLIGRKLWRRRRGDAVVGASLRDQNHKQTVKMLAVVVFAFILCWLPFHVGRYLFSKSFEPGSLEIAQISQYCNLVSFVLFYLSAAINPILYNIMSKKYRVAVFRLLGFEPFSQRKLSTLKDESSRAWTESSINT

Each compound was assayed against human ghrelin receptor (GRLN, growth hormone secretagogue receptor, hGHS-R1a) (Homo sapiens, UniProt Q92847) (assay: Competitive radioligand binding assay (ghrelin receptor), Method B1). Settings: Ghrelin receptor binding activity.

Structure (SMILES) | pKi | pIC50
CCC(C)[C@@H]1NCCNc2ccccc2CCCNC(=O)[C@@H](Cc2ccccc2)NC(=O)[C@H](C(C)O)N(C)C1=O (single isomer, unassigned) | 7.00 to 8.00 | 
CC[C@@H]1CCc2ccc(F)cc2O[C@H](C)CN[C@@H](CC)C(=O)N(C)[C@@H](C(C)O)C(=O)N[C@H](Cc2c[nH]c3ccccc23)C(=O)N1 (some centres unmarked) |  | < 6.30
CCC(C)[C@@H]1NCCCc2ccccc2[C@H]2C[C@@H]2CNC(=O)[C@@H](Cc2ccccc2)NC(=O)[C@H](C(C)O)N(C)C1=O (single isomer, unassigned) [1335] | 6.30 to 7.00 | < 6.30
CC[C@@H]1CCc2c(cccc2C(F)(F)F)OCCN[C@@H](CC)C(=O)N(C)[C@@H](C(C)O)C(=O)N[C@H](Cc2ccc(F)cc2)C(=O)N1 (some centres unmarked) |  | < 6.30
CC[C@@H]1CCc2c(C#N)cccc2OCCN[C@@H](CC)C(=O)N(C)[C@@H](C(C)O)C(=O)N[C@H](Cc2ccc(F)cc2)C(=O)N1 (some centres unmarked) |  | < 6.30
CC[C@@H]1NCCOc2ccccc2C2CCC(C2)NC(=O)[C@@H](Cc2c[nH]c3ccccc23)NC(=O)[C@H](C(C)O)N(C)C1=O (single isomer, unassigned) [1900b] |  | < 6.30
CC[C@@H]1CCc2c(C#N)cccc2OCCN[C@@H](CC)C(=O)N(C)[C@@H](C(C)O)C(=O)N[C@H](Cc2c[nH]c3ccccc23)C(=O)N1 (some centres unmarked) |  | < 6.30
CCC(C)[C@@H]1NC[C@H](C)Oc2ccccc2[C@H]2C[C@@H]2CNC(=O)[C@@H](Cc2ccccc2)NC(=O)[C@H](C(C)O)N(C)C1=O (single isomer, unassigned) [1560] | 6.30 to 7.00 | < 6.30
CC(C)[C@@H]1NCCOc2ccccc2C2CCC(C2)NC(=O)[C@@H](Cc2ccc(F)cc2)NC(=O)[C@H](C(C)O)N(C)C1=O (single isomer, unassigned) [1903b] |  | 6.30 to 7.00
CCC(C)[C@@H]1NCCOc2ccccc2/C=C(\F)CNC(=O)[C@@H](Cc2ccccc2)NC(=O)[C@H](C(C)O)N(C)C1=O (some centres unmarked) | 6.30 to 7.00 | < 6.30
CC(O)[C@H]1C(=O)N[C@H](Cc2ccccc2)C(=O)NC2CCC(C2)c2ccccc2OCCN[C@@H](C2(C)CC2)C(=O)N1C (some centres unmarked) |  | 6.30 to 7.00
CC(O)[C@H]1C(=O)N[C@H](Cc2ccc(Cl)cc2)C(=O)N[C@@H](C)CCc2ccccc2OCCN[C@@H](C2CCCCC2)C(=O)N1C (some centres unmarked) |  | 6.30 to 7.00
CC(C)[C@@H]1NCCOc2ccccc2C2CCC(C2)NC(=O)[C@@H](Cc2ccc(F)cc2)NC(=O)[C@H](C(C)O)N(C)C1=O (single isomer, unassigned) [1903c] |  | 6.30 to 7.00
CC(O)[C@H]1C(=O)N[C@H](Cc2ccccc2)C(=O)NCCCc2cccc3c2OC(CN[C@@H](C2CC2)C(=O)N1C)C3 (some centres unmarked) | < 6.30 | < 6.30
CCC(C)[C@@H]1NCCOc2cccc3c2CC(CC3)CNC(=O)[C@@H](Cc2cccc(F)c2)NC(=O)[C@H](C(C)O)N(C)C1=O (single isomer, unassigned) [1792b] |  | 6.30 to 7.00
CC(C)C[C@@H]1NCCOc2ccccc2/C=C/CNC(=O)[C@@H](Cc2ccccc2)NC(=O)[C@H](C(C)O)N(C)C1=O (some centres unmarked) | 7.00 to 8.00 | 6.30 to 7.00
CC(O)[C@H]1C(=O)N[C@H](Cc2ccccc2)C(=O)NC/C=C/c2ccccc2O[C@H](C)CN[C@@H](C2CC2)C(=O)N1C (some centres unmarked) | 7.00 to 8.00 | 6.30 to 7.00

Other lines, results leading:

pKi | pIC50 | Structure (SMILES)
 | 7.00 to 8.00 | CC(C)[C@@H]1NCCOc2ccccc2C2CCC(C2)NC(=O)[C@@H](Cc2c[nH]c3ccccc23)NC(=O)[C@H](C(C)O)N(C)C1=O (single isomer, unassigned)
 | 7.00 to 8.00 | CC[C@@H]1CCc2ccc(F)cc2OCCN[C@@H](CC)C(=O)N(C)[C@@H](C(C)O)C(=O)N[C@H](Cc2ccc(C(F)(F)F)cc2)C(=O)N1 (some centres unmarked)
 | 7.00 to 8.00 | CC[C@@H]1NCCOc2ccccc2C2CCC(C2)NC(=O)[C@@H](Cc2ccccc2)NC(=O)[C@H](C(C)O)N(C)C1=O (some centres unmarked)
 | 6.30 to 7.00 | CC[C@@H]1NCCOc2cccc3c2CC(CC3)CNC(=O)[C@@H](Cc2ccc(C(F)(F)F)cc2)NC(=O)[C@H](C(C)O)N(C)C1=O (single isomer, unassigned) [1861b]
 | 6.30 to 7.00 | CC[C@@H]1NCCOc2ccccc2C2CCC(C2)NC(=O)[C@@H](Cc2ccc(F)cc2)NC(=O)[C@H](C(C)O)N(C)C1=O (some centres unmarked)
 | 7.00 to 8.00 | CCC(C)[C@@H]1NCCNc2ccccc2CCCNC(=O)[C@@H](Cc2ccc(Cl)cc2)NC(=O)[C@H](C(C)O)N(C)C1=O (some centres unmarked)
6.30 to 7.00 | 6.30 to 7.00 | C[C@H]1C(=O)N[C@H](Cc2ccc(F)cc2)C(=O)NCCCc2cccc3c2OC(CN[C@@H](C2CC2)C(=O)N1C)C3 (some centres unmarked)
 | 6.30 to 7.00 | CC(O)[C@H]1C(=O)N[C@H](Cc2ccc(Cl)cc2)C(=O)N[C@@H](C)CCc2ccccc2OCCN[C@@H](C2CC2)C(=O)N1C (some centres unmarked)
 | 7.00 to 8.00 | CCC1CCc2cccnc2OCCNC(C2(C)CC2)C(=O)N(C)C(C(C)O)C(=O)NC(Cc2c[nH]c3ccccc23)C(=O)N1 (single isomer, unassigned) [1922b]
6.30 to 7.00 | 6.30 to 7.00 | CC(O)[C@H]1C(=O)N[C@H](Cc2ccccc2)C(=O)NC/C=C/c2ccccc2O[C@@H](C)CN[C@@H](C2CC2)C(=O)N1C (some centres unmarked)
 | 7.00 to 8.00 | CC(C)[C@@H]1NCCOc2cccc3c2CC(CC3)CNC(=O)[C@@H](Cc2ccc(C(F)(F)F)cc2)NC(=O)[C@H](C(C)O)N(C)C1=O (single isomer, unassigned) [1860b]
6.30 to 7.00 | 6.30 to 7.00 | CCC(C)[C@@H]1NCCCc2ccccc2[C@H]2C[C@@H]2CNC(=O)[C@@H](Cc2ccccc2)NC(=O)[C@H](C(C)O)N(C)C1=O (single isomer, unassigned) [1559]
 | 6.30 to 7.00 | CCC(C)[C@@H]1NCCOc2cccc3c2CC(CC3)CNC(=O)[C@@H](Cc2ccccc2)NC(=O)[C@H](C(C)O)N(C)C1=O (single isomer, unassigned) [1826]
 | 6.30 to 7.00 | CC(C)[C@@H]1NCCOc2cccc(F)c2/C=C/CNC(=O)[C@@H]([C@@H](C)c2c[nH]c3ccccc23)NC(=O)[C@H](C(C)O)N(C)C1=O (some centres unmarked)
 | 6.30 to 7.00 | CC[C@@H]1CCc2cccnc2OCCN[C@@H](C2(C)CC2)C(=O)N(C)[C@@H](C(C)O)C(=O)N[C@H](Cc2ccccc2)C(=O)N1 (single isomer, unassigned)
 | 7.00 to 8.00 | CC(C)C[C@@H]1NCCOc2cccc3c2CC(CC3)CNC(=O)[C@@H](Cc2ccccc2)NC(=O)[C@H](C(C)O)N(C)C1=O (some centres unmarked)
7.00 to 8.00 | 7.00 to 8.00 | CCC(C)[C@@H]1NC[C@H](C)Oc2ccccc2[C@H]2C[C@@H]2CNC(=O)[C@@H](Cc2ccccc2)NC(=O)[C@H](C(C)O)N(C)C1=O (single isomer, unassigned) [1337]
 | 7.00 to 8.00 | CC[C@@H]1NCCOc2cccc3c2CC(CC3)CNC(=O)[C@@H](Cc2ccc(C(F)(F)F)cc2)NC(=O)[C@H](C(C)O)N(C)C1=O (single isomer, unassigned) [1861a]
 | 6.30 to 7.00 | CCC(C)[C@@H]1NCCOc2cccc3c2CC(CC3)CNC(=O)[C@@H](Cc2ccc(O)cc2)NC(=O)[C@H](C(C)O)N(C)C1=O (single isomer, unassigned) [1790b]
7.00 to 8.00 | 7.00 to 8.00 | CCC(C)[C@@H]1NC[C@@H](C)Oc2ccccc2[C@H]2C[C@@H]2CNC(=O)[C@@H](Cc2ccccc2)NC(=O)[C@H](C(C)O)N(C)C1=O (some centres unmarked)
 | 7.00 to 8.00 | CC[C@@H]1NC[C@@H](C)Oc2cccc3c2CC(CC3)CNC(=O)[C@@H](Cc2ccc(F)cc2)NC(=O)[C@H](C(C)O)N(C)C1=O (some centres unmarked)
 | 7.00 to 8.00 | CC(C)[C@@H]1NCCOc2ccccc2C2CCC(C2)NC(=O)[C@@H](Cc2ccccc2)NC(=O)[C@H](C(C)O)N(C)C1=O (single isomer, unassigned) [1849]
